Measured values as given in article PMC3427755 (Organic & biomolecular chemistry, 2012).

Chains of the proteins cited; added tags and fusions are not shown. Residues count along the entry.
UniProt P15056, 433-726 V600E: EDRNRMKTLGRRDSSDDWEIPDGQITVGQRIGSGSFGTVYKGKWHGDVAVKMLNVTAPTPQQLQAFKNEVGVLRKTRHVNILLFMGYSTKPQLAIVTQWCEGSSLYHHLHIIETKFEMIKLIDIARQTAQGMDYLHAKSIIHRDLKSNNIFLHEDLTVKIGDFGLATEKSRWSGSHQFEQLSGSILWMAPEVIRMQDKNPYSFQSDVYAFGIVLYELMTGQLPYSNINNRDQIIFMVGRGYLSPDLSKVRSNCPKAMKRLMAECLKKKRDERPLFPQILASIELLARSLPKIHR

Molecular target: B-Raf^V600E (Homo sapiens, UniProt P15056, V600E)
Test: In vitro B-Raf kinase assay
Format: biochemical

Question: Which “improvement in IC50 values compared with the original hit 22” value does the source give for O=C1NC(=S)NC(=O)C1=Cc1ccc(-c2ccc(Br)cc2)o1 [Compound 22f, 5-[5-(4-bromo-phenyl)-furan-2ylmethylene]-2-thioxo-dihydro-pyrimidine-4,6-dione] here?
Answer: ~5 fold
